Experimental data: PMC2559975 (Journal of medicinal chemistry, 2008)

Molecular target: T1, rhGAR Tfase (Homo sapiens, UniProt P22102)
T1 sequence (P22102 808-1010 limits assumed): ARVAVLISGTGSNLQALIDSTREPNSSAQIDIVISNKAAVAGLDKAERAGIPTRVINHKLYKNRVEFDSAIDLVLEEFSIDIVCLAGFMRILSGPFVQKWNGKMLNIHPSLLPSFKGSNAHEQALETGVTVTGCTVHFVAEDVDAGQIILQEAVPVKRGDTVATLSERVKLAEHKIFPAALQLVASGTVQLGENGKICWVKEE
Test: GAR Tfase enzyme inhibition assay
Type: biochemical

Question: With `Nc1nc(N)c(CCCC(C(=O)C(F)(F)F)c2ccc(C(=O)N[C@@H](CCC(=O)O)C(=O)O)cc2)c(=O)[nH]1` (stereo partly shown) [Compound 2, 10-CF3CO-DDACTHF, reference compound] as the molecule, how does the Ki read?
Answer: 30 nM
